Results on one compound are retold here after ChEMBL document CHEMBL1687940, “Quinazoline sulfonamides as dual binders of the proteins B-cell lymphoma 2 and B-cell lymphoma extra long with potent proapoptotic cell-based activity” (J Med Chem, 2011).

The chains behind the UniProt entries cited, without tags or fusion partners.
UniProt Q07820, whole entry: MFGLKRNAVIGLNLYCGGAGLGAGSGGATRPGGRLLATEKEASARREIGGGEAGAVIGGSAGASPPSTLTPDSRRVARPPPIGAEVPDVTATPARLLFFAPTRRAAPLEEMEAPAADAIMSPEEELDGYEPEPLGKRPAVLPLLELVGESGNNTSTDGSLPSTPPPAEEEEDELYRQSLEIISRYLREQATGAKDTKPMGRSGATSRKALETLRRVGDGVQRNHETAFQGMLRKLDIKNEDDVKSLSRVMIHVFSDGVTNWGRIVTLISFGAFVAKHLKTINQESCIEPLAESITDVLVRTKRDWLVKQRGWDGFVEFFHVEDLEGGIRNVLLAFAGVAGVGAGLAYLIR

Some results are limits rather than exact numbers.

This assay has as its target Induced myeloid leukemia cell differentiation protein Mcl-1 (Homo sapiens, UniProt Q07820). In words: Displacement of wild type mBimBH3 from Mcl-1 by solution competition assay. In outline: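 Solution competition on Biacore 3000. Recombinant pro-survival protein (10 nM; Bcl-2 ΔC22, Bcl-w C29S/A128E ΔC29, human/mouse chimeric Mcl-1 ΔN170 ΔC23) preincubated ≥2 h with an 11-point 2-fold compound dilution series in HEPES/NaCl/EDTA/Tween running buffer, pH 7.4. Mixture then injected over CM5 chip bearing immobilized wild-type mBimBH3 peptide; percentage bound gives IC50.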

For `CN(C)CC[C@H](CSc1ccccc1)Nc1ccc(S(=O)(=O)NC(=O)c2ccc(N3CCN(Cc4ccccc4-c4ccc(Cl)cc4)CC3)cc2)cc1[N+](=O)[O-]` [ABT 737], the concentration for half-maximal inhibition (IC50) (in general, the concentration that gives 50% inhibition) was > 1000 nM.
